Data from article PMC7132610 (Saudi Pharmaceutical Journal : SPJ, 2020).
Where a name gives a salt, the structure may show the parent alone.

Amino acid sequences for entries named in this document (tags omitted).
UniProt P27338, whole entry: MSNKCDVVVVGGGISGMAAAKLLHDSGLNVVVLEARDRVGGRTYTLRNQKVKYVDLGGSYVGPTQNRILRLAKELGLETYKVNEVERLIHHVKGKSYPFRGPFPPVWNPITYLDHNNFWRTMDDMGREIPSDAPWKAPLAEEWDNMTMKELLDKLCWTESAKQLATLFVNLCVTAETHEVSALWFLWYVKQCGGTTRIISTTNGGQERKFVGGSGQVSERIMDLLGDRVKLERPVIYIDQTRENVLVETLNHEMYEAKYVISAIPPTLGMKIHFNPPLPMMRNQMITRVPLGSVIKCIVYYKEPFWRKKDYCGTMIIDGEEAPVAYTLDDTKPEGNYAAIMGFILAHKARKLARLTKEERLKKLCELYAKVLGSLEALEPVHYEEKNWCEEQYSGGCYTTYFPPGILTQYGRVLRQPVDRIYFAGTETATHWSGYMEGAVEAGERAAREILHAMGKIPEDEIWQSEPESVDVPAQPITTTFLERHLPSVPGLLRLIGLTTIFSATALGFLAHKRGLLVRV

Legend:
[1] = target: T1, recombinant human MAO-B (Homo sapiens, UniProt P27338); assay type: biochemical
[2] = target: T1, recombinant human MAO-B; assay type: biochemical; remark: listed apart in the source

Structure (SMILES): NNCCc1ccccc1 [Phenelzine, phenelzine sulfate, reference compound]
- Monoamine oxidase-B Type of Inhibition [1]: Mixed/Irreversible
- nature of inhibition/binding with human MAO-B (dialysis) [2]: irreversible inhibition/binding
